Reference: patent US20180112006A1, “AGENTS, SYSTEMS AND METHODS FOR TREATING CANCER” (THE GENERAL HOSPITAL CORPORATION, priority 2015, published 2018)

Test system: LN229
Assay: ENb-TRAIL induced apoptosis after cetuximab pre-treatment (Western blot, caspase3/7 assay)
Type: cell-based
Settings: cetuximab pre-treatment 30 min, then ENb-TRAIL 8 h
Excerpt: (FIG. 14A) Western blot (upper panel) and caspase3/7 assay (lower panel) showing changes in apoptotic markers.

Cetuximab: EGFR specific monoclonal antibody
ENb-TRAIL-induced apoptosis: significantly reduced
